Source: patent publication US9394233B2, “ROS-activated compounds as selective anti-cancer therapeutics” (University of Cincinnati, priority 2012, dated 2016)
pIC50: −log10 of the molar value.

Tested on: HeLa cells
Test: HeLa cell viability, MTT assay
Assay type: cell-based
Details: read-out: IC50 against HeLa Cells, 50% reduction in percent of viable HeLa cells
Description: Table 1 sets forth ROS-Activated compounds of the present invention, together with their IC50 values corresponding to a 50% reduction in the percent of viable HeLa cells in vitro as measured via MTT assay.
All synthesized compounds were purified to greater than 98% purity prior to cell testing. HeLa cell viability assays were performed using an MTT assay.
The general structure of the ROS-activated compounds disclosed herein was probed to determine how positions in the structure alter potency in aqueous media. Compounds were screened against HeLa cells to determine IC50 values. Cell viability was monitored by an MTT dye that forms a purple formazan product in viable cells that are undergoing metabolism. […] Errors reported are between two separate experiments; independent curve-fitting had r greater than 0.95).

N-methyl-N-(3-phenoxypropyl)aniline
pIC50: < 3.90
